Compound activity as filed in PubChem BioAssay.
Sampled rows, rich in hits. Any-hit rate of the full collection: about 2.8%.
miR-122 sensor: miR-122 Renilla sensor signal increase in Huh7, primary screen, miR-122 inhibitor project, cell-based, single point, plate reader; Huh7 miR-122 Renilla luciferase sensor, 48 h; neutral wells = 0, positive control = 100; activation (reporter increase), % at 12.5 µM; 0.3% of 340,000 active; AID 602342, 2012;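 active means mean replicate activation score at least 90 and every replicate individually at or above 90; inconclusive means only one of the two criteria met; inactive means neither criterion met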;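 further: higher luciferase means less miR-122 activity so hits act as miR-122 inhibitors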
PglD DTNB: C. jejuni PglD acetyltransferase inhibitors, primary screen, biochemical, DTNB colorimetric, single point | UDP-N-acetylbacillosamine N-acetyltransferase PglD (Campylobacter jejuni) | purified PglD enzyme, DTNB colorimetric CoA detection | inhibition, % at 12.5 µM | 0.098% of 360,000 active | AID 602405, 2012; in the data active means inhibition above about 16%, passing the limit was not always enough; inconclusive means no clear call, values can overlap the other calls
MITF act: activators of MITF-driven TRPM1 promoter reporter, primary screen, cell-based, SK-MEL-5, luciferase, single point; SK-MEL-5 TRPM1-promoter luciferase, 24 h; % of positive control, neutral wells = 0; 0.75% of 300,000 active; activation, % at 12.5 µM; AID 588334, 2011;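 active means mean activation of at least 80% with every replicate also reaching 80%; inconclusive means mean reaches 80% but some replicate falls short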
Yeast UUG start-1: yeast start codon fidelity modulation | S. cerevisiae UUG-firefly luciferase reporter, luminescence/redox ratio | activity score, % at 18.7 µM | hit rate 0.13% among 350,000 | AID 602363;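 active means replicate mean at a twofold rise or more, about +100% in these data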;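 further: firefly luciferase made from a UUG start codon reports start codon fidelity; reporter light over untreated wells divided by growth signal over untreated wells; some hits fall short of that in this replicate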
esBAF inh: Bmi1 luciferase reporter increase in mESCs, primary screen, esBAF inhibitor project, mouse ES cells, Bmi1 luciferase knock-in, single point. 24 h; 100% = twice the neutral-well signal. reporter increase, % at 12.5 µM. 2% of 350,000 active; in the data active means activation above about 40%; inconclusive means no clear call, values can overlap the other calls;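 further: a rise in the Bmi1 reporter signal indicates esBAF inhibition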
Wnt act: Wnt/beta-catenin pathway activators, primary screen, cell-based, plate reader, single point | Wnt/beta-catenin reporter cell assay, activator | activation, % at 9.35 µM | 1.2% of 300,000 active | AID 743398, 2014; in the data active means activation above about 30%, passing the limit was not always enough; inconclusive means no clear call, values can overlap the other calls
miR-27b qPCR: miR-27b levels after miR-122 inhibitor treatment, dose response, selectivity assay for miR-122 inhibitor project, cell-based, Huh7, RT-qPCR, dry powder | shares compounds with miR-122 sensor | Huh7 miR-27b levels, qRT-PCR, 48 h | relative miR-27b level (unnormalised ratio), ratio at 35 µM | 35 tested, under 10 active;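 active means compounds lowering miR-27b whose fitted half-maximal dose is at most twice their top tested dose; inconclusive means flat curve with moderate drop, or poor fit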
Yeast UUG start-2: enhancers of UUG start codon usage in yeast, dose response, S. cerevisiae, UUG firefly luciferase, cherry-pick, set 2; activation, % at 38 µM; shares compounds with Yeast UUG start-1; 540 tested, under 10 active; AID 652061, 2013; luminescence, 4 h; 100% means double the DMSO signal;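 active means signal increase whose fitted curve reaches an absolute level of 40 at a concentration under 10 µM; inactive means activity opposite to the expected increase, or the rest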
Each line names hits and unclear results; the compound was inactive in the other large screens (follow-up assays come after a bar, where they were run).

CC1CCN(C(CC(=O)c2ccccc2)C(=O)c2ccccc2)CC1 (centres undefined)	Wnt act 51
COc1ccc(NP(=O)(Oc2ccc(Cl)cc2)Oc2ccc(Cl)cc2)cc1OC	miR-122 sensor 136
Cc1ccc(OP(=O)(Nc2cccc(C)c2)Oc2ccc(C)cc2)cc1	miR-122 sensor 187
Cc1cccc(OP(=O)(Nc2cccnc2)Oc2cccc(C)c2)c1	none (no result: miR-122 sensor, PglD DTNB, Yeast UUG start-1, esBAF inh)
CCOC(=O)[C@@H]1[C@@H]2NC(=S)N(C)[C@@]1(COCc1ccc(OC)cc1)Oc1ccccc12	none (no result: miR-122 sensor, MITF act, esBAF inh, Wnt act)
CN=C1CN(O)C(c2ccccc2)c2cc(Cl)ccc2N1 (centres undefined)	miR-122 sensor 111
CCOc1ccc(C2CC(c3c(O)n(C)c(=O)n(C)c3=O)=NN2)cc1 (centres undefined)	Wnt act 30 (no result: MITF act, esBAF inh)
Cn1c(O)c(C2=NNC(c3ccc(Cl)cc3)C2)c(=O)n(C)c1=O (centres undefined)	none (no result: MITF act, esBAF inh)
CCCN1[C@@H]2c3ccc(-c4ccc(F)cc4)c(=O)n3C[C@H]1[C@H](CO)[C@H]2C(=O)OC	none (no result: MITF act, Yeast UUG start-1, Wnt act)
COc1ccc(NC2=NCC(C)S2)cc1 (centres undefined)	none (no result: miR-122 sensor)
COc1ccc(NC2=NC(C)(C)CS2)cc1	MITF act 95
Cc1ccccc1-c1ccc([C@H]2[C@@H](CO)N3CCCCN(C(=O)Cc4ccccn4)C[C@@H]23)cc1	none (no result: MITF act, esBAF inh, Wnt act)
O=C(O)[C@@H]1[C@@H](CO)[C@@H]2Cn3c(ccc(-c4ccncc4)c3=O)[C@H]1N2C(=O)C1CC1	none (no result: miR-122 sensor, PglD DTNB, MITF act, Yeast UUG start-1, Wnt act)
O=C1C(=O)N(c2ccccc2)P(=O)(N(CCCl)CCCl)N1c1ccccc1	MITF act 99, Wnt act 37 (no result: miR-122 sensor)
COc1cc2c(c(OC)c1OC)-c1ccc(O)c(=O)cc1C(NC(C)=O)CC2 (centres undefined)	miR-122 sensor 97
Cc1ccc(N)c(N)c1	MITF act 99
Cc1ccc(N)c(C(=O)c2ccc(Br)cc2)c1	none (no result: miR-122 sensor, PglD DTNB, Yeast UUG start-1, esBAF inh)
O=C(C1CC(c2ccc(Cl)c(Cl)c2)=NO1)N1CCC2(CC1)OCCO2 (centres undefined)	MITF act 117, esBAF inh 80 (no result: Wnt act)
COc1ccccc1CCNC(=O)CCC(=O)N1CC2C[C@@H](C1)Cn1c2cccc1=O	esBAF inh 46
O=C(O)[C@H]1[C@H](CO)[C@H]2Cn3c(ccc(-c4ccncc4)c3=O)[C@@H]1N2C(=O)C1CCC1	none (no result: MITF act, Wnt act)
CCOC(=O)C(O)(c1ccc(NC(=O)NC2CCCCC2)cc1)C(F)(F)F (centres undefined)	esBAF inh 46
O=C(OCc1ccccc1)N1CCC2CC1c1cc(N3Cc4ccccc4-n4nncc4C3)ccc12 (centres undefined)	esBAF inh 77, Wnt act inconclusive (no result: MITF act)
Fc1ccc(N2Cc3ccccc3-n3nncc3C2)cc1	none (no result: MITF act)
O=C(Cc1ccccc1)N1C[C@H]2[C@@H](c3ccccc31)[C@H](CO)N2Cc1ccccc1	none (no result: MITF act, Wnt act)
c1ccc(Nc2ccc(Nc3ccccc3)cc2)cc1	MITF act 86
O=C(Cc1cccnc1)N1CCCCN2[C@H](CO)[C@@H](c3ccc(/C=C/c4ccccc4)cc3)[C@@H]2C1	none (no result: MITF act, esBAF inh, Wnt act)
Cc1cc(C=C2C(=O)N(C)C(=S)N(C)C2=O)c(C)n1C1CCCCC1	none (no result: PglD DTNB, Yeast UUG start-1, esBAF inh, Wnt act)
Cc1cc(C=C2C(=O)NC(=S)NC2=O)c(C)n1C1CCCC1	esBAF inh 48
Cc1ccc(-n2c(=S)[nH]c3ccccc3c2=O)cc1F	esBAF inh 61 (no result: MITF act)
O=c1c2ccccc2[nH]c(=S)n1-c1ccc2c(c1)OCCO2	Wnt act 37 (no result: miR-122 sensor, PglD DTNB, MITF act, Yeast UUG start-1, esBAF inh)
O=C(Cc1cccnc1)N1CCCCN2[C@H](CO)[C@@H](c3ccc(C#CC4CC4)cc3)[C@H]2C1	none (no result: MITF act, esBAF inh, Wnt act)
O=C(Cc1ccccn1)N1CCCCN2[C@H](CO)[C@@H](c3ccc(C#Cc4ccccc4)cc3)[C@@H]2C1	none (no result: MITF act, esBAF inh, Wnt act)
CCN(CC)c1ccc(CN(C)CCc2ccc(OC)c(OC)c2)cc1	none (no result: Wnt act)
COc1ccc(CCN(C)Cc2ccc(F)cc2F)cc1OC	Wnt act 34
C[C@]12CC[C@H](O)C[C@H]1CC[C@@H]1[C@@H]2CC[C@]2(C)[C@@H](C3=CC(=O)OC3)CC[C@]12O	miR-122 sensor 123
CCCCCn1c(=O)c(C(=O)Nc2ccccc2S(N)(=O)=O)c(O)c2ccccc21	none (no result: miR-122 sensor, PglD DTNB, Yeast UUG start-1, esBAF inh)
CCCCCn1c(=O)c(C(=O)Nc2ccccc2C)c(O)c2ccccc21	esBAF inh 51 (no result: miR-122 sensor)
COC(=O)[C@@H]1[C@@H](CO)[C@@H]2Cn3c(ccc(/C=C/c4ccccc4)c3=O)[C@H]1N2C(=O)C1CC1	none (no result: miR-122 sensor, MITF act, Yeast UUG start-1, Wnt act)
CN1C(=O)/C(=C/c2ccc(N3CCCCCC3)o2)C(=O)NC1=S	Wnt act 44 (no result: MITF act)
CN1C(=O)/C(=C\c2ccc(N3CCCCC3)o2)C(=O)NC1=S	Wnt act 50 (no result: MITF act)
CN1C(=O)/C(=C\c2ccc(N3CCCCCC3)cc2)C(=O)NC1=S	none (no result: miR-122 sensor, PglD DTNB, MITF act, Yeast UUG start-1, esBAF inh)
CCn1c(C)c(C(=O)Nc2ccc(OC)cc2)c2cc(OC)ccc21	esBAF inh 51
CCCCn1c(C)c(C(=O)O)c2cc(OC)ccc21	none
O=C(CN1CCOCC1)Nc1ccc(Br)cc1C(=O)c1ccccc1	miR-122 sensor 100 (no result: Wnt act) | miR-27b qPCR inactive
COC(=O)[C@@H]1[C@@H](CO)[C@@H]2Cn3c(cccc3=O)[C@H]1N2C(=O)C1CCCC1	none (no result: MITF act, Wnt act)
COc1ccccc1CN1CCCC(C(=O)c2ccccc2OC)C1 (centres undefined)	Yeast UUG start-1 active | Yeast UUG start-2 inactive
O=C(N/N=C/c1c(O)n(-c2ccccc2)c(=S)[nH]c1=O)c1ccccc1	Yeast UUG start-1 182 (no result: MITF act, esBAF inh) | Yeast UUG start-2 inactive
OC[C@@H]1[C@@H]2c3ccccc3NC[C@@H]2N1Cc1cccnc1	none (no result: MITF act, Wnt act)
Cc1cccc(OCC(O)CN2CC2)c1 (centres undefined)	Yeast UUG start-1 143 (no result: MITF act) | Yeast UUG start-2 inactive
CC(=O)c1cccc(OCC(O)CN2CC=C(c3ccccc3)CC2)c1 (centres undefined)	none
